Laboratory results taken from publication PMC1968247, “Pre-clinical evaluation of a novel chloroethylating agent, Clomesone” (British Journal of Cancer, 1993).
Like-named read-outs stand apart in the source and are kept apart here.

Test system: MAC 26 tumours
Conditions: for Tumour growth delay: MAC 26
Description: Br. J. Cancer (1993), 67, 441 446 t? […] Bibby Clinical Oncology Unit, University of Bradford, West Yorkshire, BD7 JDP, UK. […] In vivo anti-tumour activity was examined against three transplantable adenocarcinomas of the mouse colon and in vivo bone marrow toxicity was assessed using a spleen colony forming unit assay. The pharmacokinetic behaviour of the drug in vivo and drug stability in vitro was analysed by gas chromatography with electron capture detection. […] Clinical responses to cytotoxic agents have been largely restricted to the haematological malignancies while the majority of human solid tumours have remained refractory to chemotherapy (Marsoni et al., 1987). […] However, their clinical usefulness has been limited by non-selective host toxicity, particularly myelosuppres- sion. The chloroethylnitrosoureas decompose spontaneously in aqueous solution to generate reactive intermediates that are capable of alkylating and carbamoylating nucleophilic targets (Cheng et al., 1972). Alkylation reactions consist of chloroethylations and hydroxyethylations of DNA (Tong et al., 1982). Chloroethylation of 06-guanine with subsequent cross-link formation is considered to be the most important cytotoxic reaction (Lown et al., 1978) while hydroxyethyla- tion reactions are thought to be responsible for their mutagenic and carcinogenic effects (Pelfrene et al., 1976; Swenson et al., 1979). […] In the search for other types of compound that would chloroethylate DNA, a series of 2-haloethylsulphonates was synthesised (Shealy et al., 1983). […] Recently, the NCI has introduced a new disease-orientated screening programme based on the assessment of the in vitro cytotoxicity of a panel of cell lines representing the common clinical forms of human cancers using a colorimetric assay (Boyd, 1989). […] One reason for this discrepancy is that the in vitro tests ignore the potential role played by the pharmacokinetic behaviour and bioavailability of a drug in determining tumour responses in vivo. […] It has been used extensively as part of the pre-clinical evaluation of new anti-cancer agents within the Screening and Pharmacology Group of the EORTC (Bibby et al., 1988b). The feasibility of performing minimal toxicity studies in conjunction with anti-tumour studies has been described (Bibby et al., 1988b). […] Correspondence: A.M. Matthew. Received 6 December 1991; and in revised form 13 October 1992. Br. J. Cancer (1993), 67, 441-446 '?" Macmillan Press Ltd., 1993 442 A.M. MATIHEW et al. ethylating agents with improved therapeutic indices. The assessment of stem cell survival has been recommended to study irreversible cytotoxic bone marrow injury (Schofield, 1986) and this can be performed readily in mice using a spleen colony forming unit assay.

| SMILES | Tumour growth delay (150 mg kg-1 ip) | Tumour growth delay (200 mg kg-1 ip) | Activity against MAC 26 tumour (in words) (relatively nitrosourea-resistant solid sc tumour, 100 mg kg-1 ip not different from control (P> 0.1)) | Tumour growth delay (50 mg kg-1 ip) |
| --- | --- | --- | --- | --- |
| CS(=O)(=O)CS(=O)(=O)OCCCl [Clomesone, 2-chloroethyl(methylsulphonyl)methanesulphonate] | Toxic | Toxic | inactive | – |
| CN(C)S(=O)(=O)CCNC(=O)N(CCCl)N=O [TCNU, 1-(2-chloroethyl)-3-[2-(dimethylaminosulphonyl)ethyl]-I -nitro-sourea, reference compound] | – | – | – | Toxic |
